Test results published in patent US20040265859A1 (CORNELL RESEARCH FOUNDATION, published 2004).

Protein sequences, listed by entry. Tags and fused reporters are not part of them. Residues count along the entry.
UniProt P16144, 28-1822: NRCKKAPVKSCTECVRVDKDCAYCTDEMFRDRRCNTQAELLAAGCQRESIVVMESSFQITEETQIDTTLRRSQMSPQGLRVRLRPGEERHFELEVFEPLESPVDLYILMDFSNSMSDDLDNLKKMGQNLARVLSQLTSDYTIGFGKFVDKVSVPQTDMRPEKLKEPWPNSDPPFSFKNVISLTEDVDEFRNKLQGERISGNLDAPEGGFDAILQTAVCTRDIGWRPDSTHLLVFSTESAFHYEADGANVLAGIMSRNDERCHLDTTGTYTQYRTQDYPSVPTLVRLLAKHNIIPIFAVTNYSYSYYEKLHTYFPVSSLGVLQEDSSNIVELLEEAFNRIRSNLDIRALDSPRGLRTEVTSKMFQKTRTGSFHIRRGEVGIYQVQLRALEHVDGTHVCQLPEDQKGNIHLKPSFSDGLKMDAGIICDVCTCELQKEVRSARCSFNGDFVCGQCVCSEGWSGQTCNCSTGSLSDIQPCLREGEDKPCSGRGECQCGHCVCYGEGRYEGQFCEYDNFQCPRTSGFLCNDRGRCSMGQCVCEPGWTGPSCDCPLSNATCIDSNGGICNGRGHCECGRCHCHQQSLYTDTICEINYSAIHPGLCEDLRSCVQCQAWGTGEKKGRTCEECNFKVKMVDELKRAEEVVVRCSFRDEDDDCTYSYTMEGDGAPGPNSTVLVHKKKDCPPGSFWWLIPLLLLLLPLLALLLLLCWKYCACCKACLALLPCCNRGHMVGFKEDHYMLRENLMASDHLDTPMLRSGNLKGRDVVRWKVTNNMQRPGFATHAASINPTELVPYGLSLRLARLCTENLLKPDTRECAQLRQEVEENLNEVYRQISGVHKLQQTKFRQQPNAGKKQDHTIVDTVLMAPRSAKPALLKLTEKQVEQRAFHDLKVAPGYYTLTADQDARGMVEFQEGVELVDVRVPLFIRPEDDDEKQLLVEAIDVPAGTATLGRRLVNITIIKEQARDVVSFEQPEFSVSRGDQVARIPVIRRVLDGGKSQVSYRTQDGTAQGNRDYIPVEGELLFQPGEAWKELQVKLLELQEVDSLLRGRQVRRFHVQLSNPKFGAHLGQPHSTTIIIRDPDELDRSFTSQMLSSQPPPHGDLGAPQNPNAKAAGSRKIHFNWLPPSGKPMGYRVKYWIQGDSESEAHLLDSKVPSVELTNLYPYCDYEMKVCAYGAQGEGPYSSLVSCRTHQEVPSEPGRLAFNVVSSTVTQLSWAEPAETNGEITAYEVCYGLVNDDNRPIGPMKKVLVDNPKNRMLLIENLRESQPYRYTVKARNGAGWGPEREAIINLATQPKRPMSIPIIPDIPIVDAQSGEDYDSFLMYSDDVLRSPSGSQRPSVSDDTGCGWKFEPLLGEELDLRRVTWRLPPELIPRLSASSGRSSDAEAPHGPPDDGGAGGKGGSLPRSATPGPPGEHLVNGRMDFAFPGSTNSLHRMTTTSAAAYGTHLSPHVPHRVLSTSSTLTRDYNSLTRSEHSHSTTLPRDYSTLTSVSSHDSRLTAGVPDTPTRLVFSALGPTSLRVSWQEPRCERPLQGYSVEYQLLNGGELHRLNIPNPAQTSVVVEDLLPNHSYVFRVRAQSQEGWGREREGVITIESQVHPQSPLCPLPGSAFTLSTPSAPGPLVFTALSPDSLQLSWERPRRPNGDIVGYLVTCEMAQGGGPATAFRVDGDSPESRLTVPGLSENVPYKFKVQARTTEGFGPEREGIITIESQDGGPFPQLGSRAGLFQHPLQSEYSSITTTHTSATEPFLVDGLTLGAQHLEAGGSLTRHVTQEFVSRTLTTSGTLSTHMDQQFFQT

Target: T1, β4 integrin, immunopurified (from MDA-MB-231L cells) (human, UniProt P16144)
T1 construct: mature; also called immunopurified β4 integrin; soluble β4
Experiment: ELISA, β4 integrin coated at 15 µg/ml, 1 mm MnCl2

B1: GST (glutathione S-transferase), control (other, UniProt P08515 1-218, looked up)
chain: MSPILGYWKIKGLVQPTRLLLEYLEEKYEEHLYERDEGDKWRNKKFELGLEFPNLPYYIDGDVKLTQSMAIIRYIADKHNMLGGCPKERAEISMLEGAVLDIRYGVSRIAYSKDFETLKVDFLSKLPEMLKMFEDRLCHKTYLNGDHVTHPDFMLYDALDVVLYMDPMCLDAFPKLVCFKKRIEAIPQIDKYLKSSKYIAWPLQGWQATFGGGDHPPK
  binding result: no binding
